{"sequences": {"note": "Sequences of proteins named here, by UniProt entry; tags and fusion partners are left off. A change or cut given only in a name is not applied to a line headed by its entry.", "UniProt Q9H244": "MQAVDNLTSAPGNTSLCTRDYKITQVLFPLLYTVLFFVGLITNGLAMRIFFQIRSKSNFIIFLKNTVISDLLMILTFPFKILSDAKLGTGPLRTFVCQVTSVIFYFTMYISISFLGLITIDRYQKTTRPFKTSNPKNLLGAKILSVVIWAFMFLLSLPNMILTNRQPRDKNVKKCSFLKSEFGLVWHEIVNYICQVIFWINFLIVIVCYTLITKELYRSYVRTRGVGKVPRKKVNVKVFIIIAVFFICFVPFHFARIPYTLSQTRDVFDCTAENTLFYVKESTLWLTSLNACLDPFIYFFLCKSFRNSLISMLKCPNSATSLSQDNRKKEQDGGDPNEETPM"}, "source": "paper PMC12362594", "about": "“Design, Synthesis and Preclinical Evaluation of a Brain-Permeable PET Tracer for P2Y12 Receptor Imaging in the Brain” (Journal of Medicinal Chemistry, 2025)", "target": "P2Y12R (Homo sapiens, UniProt Q9H244)", "assay": "cell-based", "settings": "IC50, [33P]2-MeSADP competitor; triplicates, mean; footnote b values: three independent experiments, mean ± SD", "experimental": "The cell cultures were maintained in an incubator at 37 °C under a humidified and 5% CO2-conditioned atmosphere. Cells were passaged at 80% confluency. For binding assays, cells were harvested with Trypsin-EDTA (5 mL, Gibco) and resuspended in medium. The suspension was centrifuged at 1000g for 5 min and the supernatant was discarded. The cells were adjusted to assay cell concentration (2 × 10^6 cells/mL) by the addition of D-PBS and stored at 37 °C up to 1 h prior to the binding assay.\nThe mixture was transferred to a 96-well filter plate (1.0 μm glass fiber filter, MultiScreenHTS FB Filter Plate, Merck Millipore, Billercia, MA) and filtered with a vacuum manifold (MultiScreenHTS Vacuum Manifold, Merck Millipore, Billercia, MA). The filters were washed by the addition of cold PBS buffer (4 × 200 μL) and dried at rt for 1 h. Afterward, a punch-tip plate was mounted and the filters were separated into scintillation vials (10 mL) containing scintillation cocktail (4 mL, Rotiszint eco plus LSC-Universalcocktail). […] Bound activity was plotted as a function of ligand concentration in GraphPad Prism 8.0 (GraphPad Software, version 8.4.3., San Diego, CA).", "data": [{"molecule": "CCOC(=O)c1cnc(N2CCC(C(=O)NCc3ccc(F)cc3)CC2)c(Cl)c1", "note": "[Compound 10, Ethyl 5-Chloro-6-(4-((4-fluorobenzyl)-carbamoyl)-piperidin-1-yl)-nicotinate]", "values": [{"measurement": "IC50", "value": 1140, "unit": "nM"}]}]}
